Test results: publication PMC2192493 (The Journal of Experimental Medicine, 1996)

Tested on: CS-pulsed P815 cells
Type: cell-based, mouse
Details: CS-immunized control mice, E/T ratio 50:1, mean + SEM

## DSYIPSAEKI [CS peptide]
  cytotoxicity of CS-induced CTL against CS-pulsed P815 cells, control mice: 52.7 + 7.4%
